The target of this experiment is DYRK1A (Homo sapiens, UniProt Q13627). The experiment can be described thus: FRET-based LanthaScreen Eu Kinase Binding Assay (Life Technologies). As to conditions: for inhibition at 0.3 µM: read-out: % DYRK1A Inhibition 300 nM; for inhibition at 1 µM: read-out: % DYRK1A Inhibition 1000 nM. A general note: TR-FRET usually uses a lanthanide donor and a delayed reading to cut background.

Setting [1] is: read-out: DYRK1A IC50, ten serial three fold dilutions (in duplicate).

From US12421232B2, “Kinase inhibitor compounds and compositions and methods of use” (ICAHN SCHOOL OF MEDICINE AT MOUNT SINAI, priority 2018, dated 2025) come the findings set out here.

One may read the IC50 as the concentration that gives 50% inhibition. What is called inhibition is the drop in the measured response relative to a control, in per cent.

Read-outs that look alike come from different tables or passages of the source.

In the case of `Cc1nccc2c1[nH]c1cc(OCC(=O)O)ccc12` [Compound 10-4a, 2-(7-oxy-1-methyl-9-H-b-carbolin)acetic acid], the inhibition at 0.3 µM turned out to be 3% and the inhibition at 1 µM stood at 6%. In addition, the IC50 (DYRK1A IC50) stood at 71 nM.
For `CCCC(C)NC(=O)C(C)CCn1c2cc(OC)ccc2c2ccnc(C)c21` (stereo not drawn) [Compound 20-10j, N-(1-methylbutyl)-4-(7-Methoxy-1-methyl-β-carbolin-9-yl)-α-methylbutanamide], the inhibition at 0.3 µM is 33% and the inhibition at 1 µM was determined as 69%.
As for `Cc1nccc2c1[nH]c1cc(OC(F)(F)F)ccc12` [Compound 20-35, 7-trifluoromethoxy-1-methyl-9H-pyrido[3,4-b]-indole], the inhibition at 1 µM amounted to 31%.
With “3-(7-oxy-1-methyl-9-H-b-carbolin)ethoxyethyl [Compound 10-2p]”, the “% DYRK1A Inhibition 300 nM” value (300 nM) was 19%. Moreover, for the setting “1000 nM”, the “% DYRK1A Inhibition 1000 nM” value was found to be 37%.
With “2-(7-oxy-1-methyl-9-H-b-carbolin)-2-acetyl-ethylamine [Compound 10-6a]”, where the note is “300 nM”, the “% DYRK1A Inhibition 300 nM” value is on record as 24%. The “% DYRK1A Inhibition 1000 nM” value (1000 nM) turned out to be 49%.
As for `CCCC(C)NC(=O)CCCn1c2cc(OC)ccc2c2ccnc(C)c21` (stereo not drawn) [Compound 20-10e, N-(1-methylbutyl)-4-(7-Methoxy-1-methyl-β-carbolin-9-yl)butanamide], the inhibition at 0.3 µM was found to be 42% and the inhibition at 1 µM was 74%.
As to `COc1ccc2c3ccnc(C)c3n(CCC(N)C#N)c2c1` (stereo not drawn) [Compound 20-16a, 3-(7-Methoxy-1-methyl-β-carbolin-9-yl)-1-cyanopropylmine], the “% DYRK1A Inhibition 300 nM” value was 88% and the “% DYRK1A Inhibition 1000 nM” value was 97%.
For “7-acetamide-1-methyl-9H-b-carboline [Compound 10-11]”, where the note is “300 nM”, the “% DYRK1A Inhibition 300 nM” value amounted to 48%. Moreover, the “% DYRK1A Inhibition 1000 nM” value (1000 nM) is listed as 77%. Besides, under setting [1], the 50% inhibitory concentration (IC50) amounted to 389 nM.
Regarding `C#CCn1c2cc(OC)ccc2c2ccnc(C)c21` [Compound 20-23a, 3-(7-Methoxy-1-methyl-β-carbolin-9-yl)-propan-1-yne], the inhibition at 0.3 µM worked out at 98% and the inhibition at 1 µM was 100%.
Turning to `Cc1nccc2c1[nH]c1cc(OCCCN)ccc12.Cl` [Compound 10-5b, 3-(7-oxy-1-methyl-9-H-b-carbolin)propylamine hydrochloric acid], the “% DYRK1A Inhibition 300 nM” value (300 nM) amounted to 8%.
`COc1ccc2c3ccnc(C)c3n(CCC(N)C(N)=O)c2c1` (stereo not drawn) [Compound 20-17a, 3-(7-Methoxy-1-methyl-β-carbolin-9-yl)-1-(carboxylamide)propylmine]: the “% DYRK1A Inhibition 300 nM” value (300 nM) worked out at 93%. The “% DYRK1A Inhibition 1000 nM” value (1000 nM) was determined as 98%.
Turning to `COc1ccc2c3ccnc(C)c3n(CCCN(C)C)c2c1` [Compound 20-9a, N,N-dimethyl-3-(7-Methoxy-1-methyl-β-carbolin-9-yl)propylamine], the inhibition at 0.3 µM stood at 10% and the inhibition at 1 µM is 26%.
Take “4-(7-Methoxy-1-methyl-β-carbolin-9-yl)propionitrile [Compound 20-1o]”: the “% DYRK1A Inhibition 300 nM” value came out at 86% and the “% DYRK1A Inhibition 1000 nM” value was determined as 94%.
As for `CCCC(C)NC(=O)C(C)(C)CCn1c2cc(OC)ccc2c2ccnc(C)c21` (stereo not drawn) [Compound 20-10l, N-(1-methylbutyl)-4-(7-Methoxy-1-methyl-β-carbolin-9-yl)-α,α-dimethylbutanamide], the inhibition at 0.3 µM amounted to 83% and the inhibition at 1 µM amounted to 96%.
For `COc1ccc2c3ccnc(C)c3n(CCCC=O)c2c1` [Compound 20-15b, 4-(7-Methoxy-1-methyl-β-carbolin-9-yl)butanal], the inhibition at 0.3 µM was 95% and the inhibition at 1 µM is 98%.
With `Cc1nccc2c1[nH]c1cc(N)ccc12` [Compound 10-9, 7-amino-1-methyl-9H-b-carboline], the inhibition at 0.3 µM was determined as 8%.
As for `Cc1nccc2c1[nH]c1cc(OCC(N)=O)ccc12` [Compound 10-3a, 2-(7-oxy-1-methyl-9-H-b-carbolin)acetamide], the “% DYRK1A Inhibition 300 nM” value (300 nM) turned out to be 10%. Under “1000 nM”, the “% DYRK1A Inhibition 1000 nM” value worked out at 30%.
With `Cc1nccc2c1[nH]c1cc(OCCCNC(=O)OC(C)(C)C)ccc12` [Compound 10-2l, 3-(7-oxy-1-methyl-9-H-b-carbolin)propyl tert-butyl carbamate], for the setting “1000 nM”, the “% DYRK1A Inhibition 1000 nM” value is on record as 50%.
As for `COc1ccc2c3ccnc(C)c3n(CCc3ccccc3)c2c1` [Compound 20-1y, 2-(7-Methoxy-1-methyl-β-carbolin-9-yl)-1-phenylethane], the inhibition at 0.3 µM is 93% and the inhibition at 1 µM worked out at 98%.
Turning to “3-(7-oxy-1-methyl-9-H-b-carbolin)-2-acetyl-propylamine [Compound 10-6b]”, the “% DYRK1A Inhibition 300 nM” value (300 nM) was 22%. Further, under “1000 nM”, the “% DYRK1A Inhibition 1000 nM” value worked out at 49%.
On to `Cc1nccc2c1[nH]c1cc(OCCCC(=O)O)ccc12` [Compound 10-4c, 4-(7-oxy-1-methyl-9-H-b-carbolin)butnoic acid], for which the “% DYRK1A Inhibition 300 nM” value (300 nM) worked out at 6%.
Regarding `C=CCn1c2cc(OC)ccc2c2ccnc(C)c21` [Compound 20-1t, 3-(7-Methoxy-1-methyl-β-carbolin-9-yl)-propan-1-ene], the inhibition at 0.3 µM amounted to 90% and the inhibition at 1 µM stood at 97%.
In the case of `COCCn1cc(CCCn2c3cc(OC)ccc3c3ccnc(C)c32)nn1` [Compound 20-24b, 4-(3-(7-Methoxy-1-methyl-β-carbolin-9-yl)propyl)-1-(2-methoxyethyl)-1,2,3-triazole], the inhibition at 0.3 µM came out at 42% and the inhibition at 1 µM stood at 78%.
In the case of “3-(7-deuteromethoxy-1-methyl-β-carbolin-9-yl)-propan-1-yne [Compound 20-33]”, the IC50 under setting [1] worked out at 8 nM.
On to `Cc1nccc2c1[nH]c1cc(NC(=O)c3ccccc3)ccc12` [Compound 10-10, 7-benzamide-1-methyl-9H-b-carboline], for which the “% DYRK1A Inhibition 300 nM” value (300 nM) worked out at 37%. For the same molecule, the “% DYRK1A Inhibition 1000 nM” value (1000 nM) came to 65%.
As to `CCCCNC(=O)C(C)CCn1c2cc(OC)ccc2c2ccnc(C)c21` (stereo not drawn) [Compound 20-10i, N-(butyl)-4-(7-Methoxy-1-methyl-β-carbolin-9-yl)-α-methylbutanamide], the inhibition at 0.3 µM was 25% and the inhibition at 1 µM turned out to be 53%.
Turning to “6-(6-(7-methoxy-1-methyl-β-carbolin-9-yl)pentyl)-5-amino-1,2,4-oxadiazole [Compound 20-38d]”, under setting [1], the concentration for half-maximal inhibition (IC50) is 178 nM.
In the case of `CCCCNC(=O)CCCn1c2cc(OC)ccc2c2ccnc(C)c21` [Compound 20-10d, N-(butyl)-4-(7-Methoxy-1-methyl-β-carbolin-9-yl)butanamide], the inhibition at 0.3 µM worked out at 38% and the inhibition at 1 µM came out at 76%.
Consider `C#CCCn1c2cc(OC)ccc2c2ccnc(C)c21` [Compound 20-23b, 4-(7-Methoxy-1-methyl-β-carbolin-9-yl)-but-1-yne], for which the inhibition at 0.3 µM amounted to 89% and the inhibition at 1 µM amounted to 97%.
For the molecule `Cc1nccc2c1[nH]c1cc(OCCCCC(=O)O)ccc12` [Compound 10-4d, 5-(7-oxy-1-methyl-9-H-b-carbolin)pentanoic acid], for the setting “300 nM”, the “% DYRK1A Inhibition 300 nM” value came out at 20%.
